Literature values, collected in PMC4646457 (2015).

Settings: Day 8; ref study EGF10002; cited from earlier work

For `CS(=O)(=O)CCNCc1ccc(-c2ccc3ncnc(Nc4ccc(OCc5cccc(F)c5)c(Cl)c4)c3c2)o1` [lapatinib], the half-life is listed as 9 h.
